Data published in PMC6789647, “α-Glucosidase Inhibitory Activity of Cycloartane-Type Triterpenes Isolated from Indonesian Stingless Bee Propolis and Their Structure–Activity Relationship” (Pharmaceuticals, 2019).

Amino acid sequences for entries named in this document (tags omitted). A change or cut given only in a name is not applied to a line headed by its entry.
UniProt P53341: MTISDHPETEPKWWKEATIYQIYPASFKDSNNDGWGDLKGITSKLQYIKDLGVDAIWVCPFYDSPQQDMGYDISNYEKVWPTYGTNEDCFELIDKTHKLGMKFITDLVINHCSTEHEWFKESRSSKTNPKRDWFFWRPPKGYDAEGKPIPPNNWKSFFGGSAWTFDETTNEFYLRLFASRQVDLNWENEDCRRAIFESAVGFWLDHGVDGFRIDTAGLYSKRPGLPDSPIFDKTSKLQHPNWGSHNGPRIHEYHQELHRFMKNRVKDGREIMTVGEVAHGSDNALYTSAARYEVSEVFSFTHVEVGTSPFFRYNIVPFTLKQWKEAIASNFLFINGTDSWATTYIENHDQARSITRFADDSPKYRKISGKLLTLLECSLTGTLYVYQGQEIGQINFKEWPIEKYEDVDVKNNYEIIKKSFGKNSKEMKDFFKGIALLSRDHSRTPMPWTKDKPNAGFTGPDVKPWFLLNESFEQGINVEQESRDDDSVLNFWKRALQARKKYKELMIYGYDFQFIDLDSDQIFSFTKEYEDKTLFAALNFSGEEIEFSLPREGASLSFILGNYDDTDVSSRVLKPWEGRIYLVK

Target: α-glucosidase from Saccharomyces cerevisiae (Saccharomyces cerevisiae, UniProt P53341)
Test: Inhibitory activity assay for yeast α-glucosidase (pNPG substrate)
Assay type: biochemical
Description: The inhibitory activity of α-glucosidase from Saccharomyces cerevisiae (Sigma-Aldrich, Tokyo, Japan) of the isolation compounds was determined using a previously reported procedure with modifications. p-Nitrophenyl α-glucopyranoside (pNPG) (Sigma-Aldrich, Tokyo, Japan) was used as a substrate. Other chemicals used were of analytical grade. […] Then, 40 µL of 3 mM pNPG solution was added, and the mixture was incubated at 37 °C for 20 min. The reaction was stopped by adding a solution of Na2CO3 (0.1 M, 200 µL), and the absorbance (at 405 nm) of the resulting solution was measured via an Epoch microplate reader (Biotech, Tokyo, Japan). All experiments were performed in three independent replicates. The inhibition of isolated compounds on α-glucosidase was calculated as follows:(2) Inhibition (%)=(1−A1/A0)×100 where A0 is the absorbance of the control, and A1 is the absorbance of the propolis samples. The IC50 values were determined as the half-maximal inhibitory concentration of the inhibitor (isolated compound) which provides 50% inhibition.

OCC(CO)N[C@H]1C[C@](O)(CO)[C@@H](O)[C@H](O)[C@H]1O [Voglibose]
inhibitory activity against α-glucosidase from the yeast (S. cerevisiae), in words: no activity at all
